## scFv variants of Ab-14 (heavy chain) against a SARS-CoV-2 spike peptide

Values reported by Engelhart et al. 2022, doi:10.1038/s41597-022-01779-4 (FLAb copy).

All variants were tested on one target, the spike HR2 peptide PDVDLGDISGINAS (SARS-CoV-2).

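In library AAYL49, one, two or three CDR residues were substituted; doubles and triples were drawn at random. AlphaSeq pools MATa yeast showing the antibodies with MATalpha yeast showing the peptide. The frequency of each diploid, read from paired DNA barcodes, reflects how well the two displayed proteins bind. Scores were corrected for input abundance and mapped to Kd with protein pairs of known affinity run in the same pool. There are three technical replicates.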

The variants keep the light chain, the linker and the frameworks of Ab-14 (scFv order VH, three GGGGS repeats, VL).
VH: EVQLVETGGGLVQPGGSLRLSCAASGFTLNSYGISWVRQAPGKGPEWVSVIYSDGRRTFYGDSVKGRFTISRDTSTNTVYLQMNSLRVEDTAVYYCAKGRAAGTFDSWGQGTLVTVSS
VL: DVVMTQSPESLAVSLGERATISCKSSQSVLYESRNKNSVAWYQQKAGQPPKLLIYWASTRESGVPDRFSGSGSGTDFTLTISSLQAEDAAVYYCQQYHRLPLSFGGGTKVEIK

Each variant is given by its three heavy chain CDRs, as the data file delimits them; those of the parent are GFTLNSYGIS, VIYSDGRRTFYGDSVK, GRAAGTFDS.
This list gathers variants with a substitution at R100 (VH, numbered from residue 1).
Affinities are written as log10 Kd with Kd in nM; a lower number is a better binder.
Replicates are averaged; those with no signal do not enter the mean.
Where no diploid with the target was found in that replicate, the entry reads "ND": below detection, most likely a poor binder, though not proof of it.
For reference, the parent read 0.65 as the reference entry and 4.11 (one replicate of three) as a member of this library.

- GVTLNSYGIS, VIYSDGRRTFYGDSVK, DLAAGTFDS = ND, 3.50, ND
- WFILNSYGIS, VIYSDGRRTFYGDSVK, GHAAGTFDS = 2.08, 3.00, 2.74 (mean 2.61)
- GFTLNSYGIS, VIYNDGRRTFYGDSVK, GCAAGTFDL = ND, ND, ND
- GFTLNSYGIY, VIYSDGRRTFYGDYVK, GPAAGTFDS = ND, ND, ND
- GFTLNHYGIS, VIYSDGRRTFYGDSVK, GTAWGTFDS = 4.33, ND, ND
- GFTLNSYGIS, VIYSDGRRTFYGDSVF, GMAAGTFAS = 4.08, 4.48, ND (mean 4.28)
- GFTLNSYGIS, VIYSDGRRTFYGSSIK, GLAAGTFDS = 3.38, 3.85, ND (mean 3.62)
- GFTLNSEGIS, VIYSDGRRTFYGDSVK, GLAAKTFDS = 4.60, ND, ND
- GFTLNSECIS, VIYSDGRRTFYGDSVK, GHAAGTFDS = 4.55, ND, ND
- QFTLNSYGIS, VIYSDGRRTFYGDSVK, GLAAGTFDS = ND, ND, 3.27
- GSTLNSYGIS, VIYSDGRRTFYGDSVK, GTAAGFFDS = 2.57, 2.28, 2.80 (mean 2.55)
- GFTLNSYGIS, VIYSMGRRTFYGDSVK, GVAAGTFTS = 2.03, ND, ND
- PFTLNSYGIS, VIHSDGRRTFYGDSVK, GCAAGTFDS = ND, ND, ND
- GFTLNSYGIS, LIYSDGRRTFHGDSVK, GPAAGTFDS = ND, ND, ND
- GFTMNSYGIS, VIYSDGVRTFYGDSVK, GDAAGTFDS = 1.89, 2.29, 1.55 (mean 1.91)
- RFTLNSYGIS, DIYSDGRRTFYGDSVK, GVAAGTFDS = ND, 4.82, ND
- GFELNSYGIS, VIYSDGRRTFYGDSVK, GDAAGTFDE = 0.50, 0.73, 0.50 (mean 0.58)
- GFALNSYGIS, VIYSDGRRTFYGDSVK, GCAAGTFDS = ND, ND, ND
- GFTLNSYGIS, VINSDGRTTFYGDSVK, GCAAGTFDS = 4.07, ND, ND
- GKTDNSYGIS, VIYSDGRRTFYGDSVK, GWAAGTFDS = ND, ND, ND
- GFTLNSYGIQ, VIYSDGRLTFYGDSVK, GGAAGTFDS = 5.24, ND, ND
- GFTLNSYGIS, VIYSDGRRTFYGDSVK, GTAAGTFDS = ND, 4.53, 2.68 (mean 3.61)
- GFTLNSYGIS, VITSDGRRTFYGDSVK, GPAAGDFDS = ND, ND, 4.54
- GFTLNSYGIS, VIYSDGRRTFYGDSVK, GLAANTFDR = ND, ND, ND
- GFTLNSYGIS, VIYSDGRRTKYGDSVK, GWAAHTFDS = ND, 3.68, ND
- GFTLNSYGIS, VIYSDGRRTSYGDSVK, GLAAGGFDS = ND, ND, 3.69
- GFTLNVCGIS, VIYSDGRRTFYGDSVK, GAAAGTFDS = ND, ND, ND
- GFRLNSYGIS, VIPSDGRRTFYGDSVK, GEAAGTFDS = ND, ND, 3.84
- GFTLNSYGFS, VIYSDGRRTFYWDSVK, GCAAGTFDS = ND, ND, ND
- GKTLNSYGHS, VIYSDGRRTFYGDSVK, GYAAGTFDS = ND, 4.04, ND
- GFTLNFYGIS, VIYSDGRRTFYGDSVK, GLAAGGFDS = ND, 3.57, ND
- GFTLNSYGIS, EIYSDGRRTFYGDSVK, GIQAGTFDS = ND, ND, ND
- GFTLNSYGIS, VIYSDGRRTRYGDSVK, GCAAGTFDS = 2.81, ND, 3.21 (mean 3.01)
- GFTLYSYGIS, VIYSDGRRQFYGDSVK, GPAAGTFDS = ND, ND, ND
- GFTLNSYIIS, VIYSDGRRTFYGDSVK, GLAAMTFDS = ND, ND, ND
- GATLNSYGIS, VIYSDGRRTPYGDSVK, GIAAGTFDS = ND, 4.21, 4.67 (mean 4.44)
- GFYLNSYGKS, VIYSDGRRTFYGDSVK, GVAAGTFDS = 4.75, 3.79, ND (mean 4.27)
- EFTLNSYGIS, VIYSDGRRTFYGDSVK, GYAAGTFDS = 2.16, 1.58, ND (mean 1.87)
- GFTLNSYGIS, VIYSDGRRTFYGDSVK, GTAAGTFYS = ND, ND, ND
- SFTLNSYGIS, VIASDGRRTFYGDSVK, GDAAGTFDS = ND, 2.09, ND
- GTTLNSMGIS, VIYSDGRRTFYGDSVK, GYAAGTFDS = ND, 3.27, ND
- GFTLNSYGIS, VIYLDGRRTMYGDSVK, GKAAGTFDS = ND, ND, ND
- GFTWNSYGIS, VIYSDGRSTFYGDSVK, GGAAGTFDS = ND, ND, ND
- GFTLNSYGIS, VILLDGRRTFYGDSVK, GCAAGTFDS = ND, ND, ND
- GHTLNSYGIS, VIYSDGRRKFYGDSVK, GPAAGTFDS = 3.05, 2.80, 3.01 (mean 2.96)
- GFTLNSYGWS, GIYSDGRRTFYGDSVK, GIAAGTFDS = 4.34, ND, ND
- GFTLNSYGIS, VIYSDGNRTCYGDSVK, GVAAGTFDS = 4.52, 2.85, 4.61 (mean 4.00)
- GFTLNSYGAS, VIYSDGRRTFYGDSVK, VMAAGTFDS = 5.56, ND, ND
- GFTLNSYGIG, VIYSDGRRTFYGDSVP, GIAAGTFDS = ND, ND, ND

For reference, 4 entries of the list once more:

| CDR-H1 | CDR-H2 | CDR-H3 | log10 Kd (nM) by replicate | mean, log10 nM |
|---|---|---|---|---|
| GFTWNSYGIS | VIYSDGRSTFYGDSVK | GGAAGTFDS | ND, ND, ND | ND |
| GFTLNSYGIS | VIYSDGRRTFYGDSVF | GMAAGTFAS | 4.08, 4.48, ND | 4.28 |
| GFTLNSYGIS | VIYSDGRRTKYGDSVK | GWAAHTFDS | ND, 3.68, ND | 3.68 |
| GATLNSYGIS | VIYSDGRRTPYGDSVK | GIAAGTFDS | ND, 4.21, 4.67 | 4.44 |

As a blank, each scFv also met three strains without target: over library AAYL49, 15% of these pairings were detected, typically at 4.06 and seldom below 2.83.